In ChEMBL document CHEMBL3351775, “Design, synthesis and anti-HIV evaluation of novel diarylnicotinamide derivatives (DANAs) targeting the entrance channel of the NNRTI binding pocket through structure-guided molecular hybridization” (Eur J Med Chem, 2014):

System: Human immunodeficiency virus 1
Assay: Antiviral activity against HIV1 3B infected in human MT4 cells assessed as inhibition of virus-induced […] after 5 days by MTT assay
Assay type: functional, organism-based
Conditions: Human immunodeficiency virus 1, 3B, MT4, 120 h

Cc1cn([C@H]2C[C@H](N=[N+]=[N-])[C@@H](CO)O2)c(=O)[nH]c1=O [ZIDOVUDINE]
EC50: 7.1 nM
